The target of the assay is T1, NSD2 (Homo sapiens, UniProt O96028).
T1 sequence (O96028 1-1365): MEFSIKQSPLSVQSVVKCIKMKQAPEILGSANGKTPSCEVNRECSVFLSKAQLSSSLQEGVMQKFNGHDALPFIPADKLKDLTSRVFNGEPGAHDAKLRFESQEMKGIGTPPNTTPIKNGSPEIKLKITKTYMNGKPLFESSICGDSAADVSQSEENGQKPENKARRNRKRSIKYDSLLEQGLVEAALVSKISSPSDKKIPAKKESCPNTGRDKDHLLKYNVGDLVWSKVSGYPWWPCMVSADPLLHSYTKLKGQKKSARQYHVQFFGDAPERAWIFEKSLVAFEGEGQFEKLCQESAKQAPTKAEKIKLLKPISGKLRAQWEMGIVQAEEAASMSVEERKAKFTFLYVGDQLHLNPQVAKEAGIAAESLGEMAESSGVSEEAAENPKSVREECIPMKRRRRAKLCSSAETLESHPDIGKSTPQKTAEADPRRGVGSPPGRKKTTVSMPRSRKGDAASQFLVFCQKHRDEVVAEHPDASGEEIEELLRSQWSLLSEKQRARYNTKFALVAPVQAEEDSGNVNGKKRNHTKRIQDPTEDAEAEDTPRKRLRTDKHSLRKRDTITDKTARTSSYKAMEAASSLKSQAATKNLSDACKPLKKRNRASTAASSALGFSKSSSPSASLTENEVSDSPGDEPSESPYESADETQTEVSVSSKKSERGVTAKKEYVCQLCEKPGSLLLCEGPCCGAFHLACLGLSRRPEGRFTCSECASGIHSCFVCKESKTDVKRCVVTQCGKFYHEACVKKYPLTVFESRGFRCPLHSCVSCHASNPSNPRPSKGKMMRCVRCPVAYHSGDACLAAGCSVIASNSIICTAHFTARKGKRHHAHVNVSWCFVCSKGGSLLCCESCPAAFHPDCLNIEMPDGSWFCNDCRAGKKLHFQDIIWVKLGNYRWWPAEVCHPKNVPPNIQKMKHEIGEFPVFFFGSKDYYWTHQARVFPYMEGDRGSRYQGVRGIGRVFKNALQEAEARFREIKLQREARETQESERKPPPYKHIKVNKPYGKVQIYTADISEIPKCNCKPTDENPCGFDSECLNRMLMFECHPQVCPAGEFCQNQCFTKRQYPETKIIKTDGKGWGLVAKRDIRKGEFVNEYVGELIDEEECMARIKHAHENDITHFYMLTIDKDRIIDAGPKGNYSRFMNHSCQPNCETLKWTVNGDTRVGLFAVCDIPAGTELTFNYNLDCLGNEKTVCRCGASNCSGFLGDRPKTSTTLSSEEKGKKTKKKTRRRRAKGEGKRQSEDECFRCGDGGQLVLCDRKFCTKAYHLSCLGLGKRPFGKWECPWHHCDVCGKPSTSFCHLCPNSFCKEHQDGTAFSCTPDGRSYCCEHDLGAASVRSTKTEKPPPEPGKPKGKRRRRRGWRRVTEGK
Description: Methyltransferase inhibition, 10-dose IC50 mode. Format: biochemical. The procedure: Verticillin A was tested as an inhibitor against 18 known methyltransferases. […] All reactions were carried out with a S-adenosyl methionine (SAM) concentration of 1 μM.
The methyltransferases tested included the human DNA (cytosine-5) methyltransferases DNMT3a and BNMT3b; the non-SET domain containing H3K79 methyltransferase DOT 1; the H3K27 methyltransferase EZH2; the Mixed-Lineage Leukemia H3K4Me methyltransferases MLL1, MLL2, MLL3, and MLL4; the probable histone-lysine N-methyltransferase NSD2 (also known as Wolf-Hirschhorn syndrome candidate 1 protein, WHSC1); the protein arginine N-methyltransferases PRMT1, PRMT3, PRMT4, PRMT5, and PRMT6; the H3K4 specific methyltransferase SET7; the […] specific methyltransferase SET8 (also known as PR-SETT); the SET domain and mariner transposase fusion gene-containing protein SETMAR; the N-lysine methyltransferase SMYD2; the histone-lysine N-methyltransferase EZH1; the methyltransferase G9a that can methylate K9 and K27 of H1 and H3; the G9a-like methyltransferase GLP; and the H3K9 selective methyltransferases SUV39H1 and SUV39H2.

SMILES strings stand for the structures.

Drawing on US20140161785A1, “Verticillin A Inhibition of Histone Methyltransferases” (priority 2012, published 2014), this text covers IC50 for one compound.

For orientation: IC50 means the concentration that inhibits the measured activity by half.

As to `Nc1ncnc2c1ncn2[C@@H]1O[C@H](CSCC[C@H](N)C(=O)O)[C@@H](O)[C@H]1O` [SAH, S-(5′-Adenosyl)-L-homocysteine], the IC50 was 5.05 µM.
